Amino acid sequences for entries named in this document (tags omitted). Residues count along the entry.
UniProt P15056, 2-766 V600E limits assumed: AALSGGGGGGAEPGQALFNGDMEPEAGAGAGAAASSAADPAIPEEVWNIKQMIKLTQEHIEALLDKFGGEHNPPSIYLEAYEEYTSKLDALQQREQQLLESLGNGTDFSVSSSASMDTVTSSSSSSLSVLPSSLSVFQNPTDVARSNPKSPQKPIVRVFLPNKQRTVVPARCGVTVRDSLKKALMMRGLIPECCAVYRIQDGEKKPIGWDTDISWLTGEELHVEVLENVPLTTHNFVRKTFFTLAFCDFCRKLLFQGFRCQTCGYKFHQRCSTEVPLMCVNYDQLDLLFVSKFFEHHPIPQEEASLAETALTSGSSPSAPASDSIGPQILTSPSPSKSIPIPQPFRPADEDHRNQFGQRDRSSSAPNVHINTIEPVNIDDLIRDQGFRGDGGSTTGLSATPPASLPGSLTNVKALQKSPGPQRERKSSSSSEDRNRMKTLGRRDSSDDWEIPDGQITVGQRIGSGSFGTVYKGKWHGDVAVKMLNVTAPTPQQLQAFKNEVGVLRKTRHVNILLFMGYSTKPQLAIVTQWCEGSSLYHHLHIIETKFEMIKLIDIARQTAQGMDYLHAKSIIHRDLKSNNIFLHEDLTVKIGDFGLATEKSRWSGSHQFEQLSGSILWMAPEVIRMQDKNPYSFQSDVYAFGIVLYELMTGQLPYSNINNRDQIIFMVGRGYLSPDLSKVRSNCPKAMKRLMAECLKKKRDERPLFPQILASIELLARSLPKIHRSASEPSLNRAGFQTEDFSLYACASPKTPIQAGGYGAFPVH
UniProt P15056, whole entry: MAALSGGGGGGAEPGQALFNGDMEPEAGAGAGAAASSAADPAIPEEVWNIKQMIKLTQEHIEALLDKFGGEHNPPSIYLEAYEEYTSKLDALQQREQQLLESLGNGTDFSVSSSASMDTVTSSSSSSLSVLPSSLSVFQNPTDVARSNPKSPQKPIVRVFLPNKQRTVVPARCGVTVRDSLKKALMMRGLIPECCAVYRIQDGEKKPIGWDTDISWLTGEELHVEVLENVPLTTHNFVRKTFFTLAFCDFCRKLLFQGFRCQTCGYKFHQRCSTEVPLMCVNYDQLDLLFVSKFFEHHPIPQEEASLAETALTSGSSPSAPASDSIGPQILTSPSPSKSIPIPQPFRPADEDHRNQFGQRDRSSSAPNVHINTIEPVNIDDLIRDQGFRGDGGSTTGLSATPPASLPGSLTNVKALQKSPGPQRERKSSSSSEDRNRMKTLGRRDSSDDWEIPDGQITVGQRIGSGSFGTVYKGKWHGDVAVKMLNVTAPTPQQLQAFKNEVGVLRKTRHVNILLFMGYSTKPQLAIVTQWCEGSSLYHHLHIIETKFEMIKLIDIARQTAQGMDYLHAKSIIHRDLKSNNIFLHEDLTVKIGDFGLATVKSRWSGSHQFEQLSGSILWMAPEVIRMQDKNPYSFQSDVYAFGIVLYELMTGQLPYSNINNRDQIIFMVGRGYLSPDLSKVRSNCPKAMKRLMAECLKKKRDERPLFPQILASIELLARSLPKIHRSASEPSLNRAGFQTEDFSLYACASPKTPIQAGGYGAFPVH

According to ChEMBL document CHEMBL2086356, “Identification of a novel family of BRAF(V600E) inhibitors” (J Med Chem, 2012):

Key:
[1] = biological target: Serine/threonine-protein kinase B-raf (Homo sapiens, UniProt P15056, V600E); experiment: Inhibition of human 6x-His tagged BRAF V600E mutant expressed in Sf9 cells by ELISA based kinase assay
Method in brief: (§1)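 Enzyme at about 28–30 nM was preincubated with compound for 1 h at RT, then added to glutathione-plate-bound GST-MEK-His (50 μg/mL). Reaction in HEPES pH 7.0 with MgCl2 and 100 μM ATP ran 30 min at 37 °C. Read-out was anti-phospho-MEK1/2 then HRP chemiluminescence. Run in duplicate or triplicate; IC50 from a four-parameter logistic fit.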

[2] = biological target: Serine/threonine-protein kinase B-raf (Homo sapiens, UniProt P15056); experiment: Inhibition of human 6x-His tagged wild type BRAF expressed in Sf9 cells by ELISA based kinase assay; method in brief: as §1

IC50 [1]: 100 nM
IC50 [2]: 260 nM
SMILES: O=S(=O)(Nc1cc(Sc2nc[nH]n2)c(O)c2ccccc12)c1cccs1
